# Measured affinities in a library of Ab-95 light chain variants

Reference: Engelhart et al. 2022, doi:10.1038/s41597-022-01779-4. File: FLAb, binding data.

Target: peptide PDVDLGDISGINAS, taken from heptad repeat 2 (HR2) of SARS-CoV-2 spike.

Ab-95 is the parent antibody, in scFv form: VH, then a (GGGGS)3 linker, then VL. The heavy chain is unchanged in all variants.
VH: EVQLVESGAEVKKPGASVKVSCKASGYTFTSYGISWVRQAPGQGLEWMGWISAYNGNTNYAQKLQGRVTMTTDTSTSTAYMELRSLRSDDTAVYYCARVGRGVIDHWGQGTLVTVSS
VL: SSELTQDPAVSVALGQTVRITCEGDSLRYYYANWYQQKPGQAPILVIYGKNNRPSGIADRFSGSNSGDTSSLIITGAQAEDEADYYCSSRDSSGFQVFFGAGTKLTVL

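The parent was found by panning a naive human phage display library on the peptide. Library AAYL52 holds single substitutions and randomly drawn double and triple substitutions in the CDRs. The scFvs were displayed on barcoded MATa yeast, the peptide on MATalpha yeast. Mating (16 h, 30 °C) was followed by selection of diploids and sequencing of their barcodes. Scores were corrected for input abundance and mapped to Kd with protein pairs of known affinity run in the same pool. Each pool was mated in three replicate cultures.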

The parent's light chain CDRs are EGDSLRYYYAN, GKNNRPS, SSRDSSGFQVF; each variant's own CDRs replace them letter for letter.
Scale: log10 of Kd in nM, estimated from mating counts; low values are strong binders.
The mean shown is taken over the replicates in which the pair was detected.
An entry "nd" has no value in the source: the pair was not observed among the diploids in any replicate. This suggests poor binding but is not conclusive.
Empty control strains, which show no peptide, gave a signal in 28% of pairings with library AAYL52; the median was 3.91 and 95% of these signals were weaker than 2.90. No background was subtracted. For each scFv, signals with the empty controls are counted beside the result.

Result 4.11 (3 of 3 replicates; controls 2 of 9), variant LGDSLRYYYAN / GQRNRPS / SSRDSSGFQVF.
Result 1.35 (3 of 3 replicates; controls 4 of 9), variant EGGSLGYYYAN / GNNNRPS / SSRDSSGFQVF.
Result 2.92 (1 of 3 replicates; controls 4 of 9), variant EGDSIRYYYAN / YKNFRPS / SSRDSSGFQVF.
Result 4.13 (2 of 3 replicates; controls 3 of 9), variant EGDSLRYYYAN / GKNNSPS / SSRDSSGFTVF.
Result 1.75 (3 of 3 replicates; controls 5 of 9), variant EGDSLREYHAN / GKNNRPS / NSRDSSGFQVF.
Result 1.77 (3 of 3 replicates; controls 2 of 9), variant EGPSLRWYHAN / GKNNRPS / SSRDSSGFQVF.
Result 4.31 (1 of 3 replicates; controls 2 of 9), variant EGDVLRYYYGN / GKNNRPS / SSRDSSGLQVF.
Result 4.11 (2 of 3 replicates; controls 2 of 9), variant WGDALRYYYAN / GKNNRPS / SSADSSGFQVF.
Result 3.18 (2 of 3 replicates; controls 0 of 9), variant EGDSLRYYYAN / GKNNRNW / SSRDSSGFQVF.
Result 3.34 (3 of 3 replicates; controls 1 of 9), variant EWDSLQYYYAN / GNNNRPS / SSRDSSGFQVF.
Result 4.52 (1 of 3 replicates; controls 2 of 9), variant EGDSLRYYCAW / GKNNRPS / SSKDSSGFQVF.
Result 4.06 (3 of 3 replicates; controls 2 of 9), variant EGDSLRYYYIN / GKGNRPS / SSADSSGFQVF.
Result 2.37 (3 of 3 replicates; controls 2 of 9), variant EGDSLRYYYAN / GKNIRQS / SSRDSSGFQSF.
Result 2.38 (3 of 3 replicates; controls 3 of 9), variant EGDSLRYYYAN / GKNDRPS / SSRDSSGCQVF.
Result 4.47 (2 of 3 replicates; controls 3 of 9), variant IGDILRYYYAN / GKNNRPS / SSRDSSGFQVR.
Result 4.10 (1 of 3 replicates; controls 0 of 9), variant EGDSLRYYYAN / CKNNRPS / STRDSSGFQVF.
Result 1.90 (3 of 3 replicates; controls 2 of 9), variant EGDSLRYMHAN / GKNNRPS / SSRDSSGFFVF.
Result 3.88 (1 of 3 replicates; controls 5 of 9), variant EGDSLRYYYMN / GKNNRPS / SSRDSSGFSYF.
Result 4.78 (1 of 3 replicates; controls 1 of 9), variant EGDSLRYYYWN / GKNNRPS / SSRDASGFQVI.
Result nd (0 of 3 replicates; controls 1 of 9), variant EGDSLRYYYAN / SKNNRPS / SSVKSSGFQVF.
Result 3.76 (1 of 3 replicates; controls 1 of 9), variant EGDSLRYYLAR / GKNNRPS / SSRDSSTFQVF.
Result 4.28 (2 of 3 replicates; controls 4 of 9), variant EGDSLRYYYAN / GKNNRPS / SERDSSGLQMF.
Result 2.58 (3 of 3 replicates; controls 3 of 9), variant EGGSLRYYYAN / GRNNRPS / SSRDSNGFQVF.
Result 4.07 (2 of 3 replicates; controls 4 of 9), variant EPDRLRYKYAN / GKNNRPS / SSRDSSGFQVF.
Result nd (0 of 3 replicates; controls 3 of 9), variant EIDSLRYYYAN / LKNNRPS / SSRDSSGFQWF.
Result nd (0 of 3 replicates; controls 1 of 9), variant EKDYLRYYYAN / GKNNRPS / SSRDSSGFPVF.
Result 3.46 (2 of 3 replicates; controls 1 of 9), variant EGDSNRYYYAN / GKTNRPS / SSRDSLGFQVF.
Result nd (0 of 3 replicates; controls 0 of 9), variant EGDSLRYYYAN / GKNNRPS / WSRDSKGFQVE.
Result 3.52 (3 of 3 replicates; controls 1 of 9), variant EGDSLRPYYAN / SHNNRPS / SSRDSSGFQVF.
Result 3.37 (3 of 3 replicates; controls 4 of 9), variant EGDSLRYYYAN / GKNNRPS / SGRTRSGFQVF.
Result 3.41 (1 of 3 replicates; controls 0 of 9), variant EGDSLQYYYQN / GKTNRPS / SSRDSSGFQVF.
Result 3.99 (2 of 3 replicates; controls 2 of 9), variant EGDSLRYYYAN / GKNNRPS / SERDSSGFPPF.
Result 2.51 (3 of 3 replicates; controls 4 of 9), variant MGSSLRYYYAN / GKNNRPS / SSRDSSGQQVF.
Result 4.17 (3 of 3 replicates; controls 5 of 9), variant EGDSLRYYYAL / GKNFCPS / SSRDSSGFQVF.
Result 2.34 (3 of 3 replicates; controls 5 of 9), variant EGDSLRSYYAN / GKNNRPS / SVRDSSGFQVL.
Result 3.97 (1 of 3 replicates; controls 2 of 9), variant QGDSLRYYYAN / GINNRPS / SSFDSSGFQVF.
Result 3.98 (1 of 3 replicates; controls 5 of 9), variant EADSVRYYYAN / CKNNRPS / SSRDSSGFQVF.
Result 2.83 (3 of 3 replicates; controls 3 of 9), variant EGDSLPGYYAN / GKNNRPS / SSRDSSGFQVA.